Only a part is listed here, and it is no random draw. Results filed as inconclusive are left out. The source made the active and inactive calls. No rule for the calls is given here.
Target: Catechol O-methyltransferase (Homo sapiens) (UniProt P21964)
Experiment: Primary Screen for Target Class Profiling of Small Molecule Inhibitors of Methyltransferases
Conditions: purified enzyme, MTase-Glo SAH luminescence; at 40 µM; stronger effect = lower value
From the text: PI: Matthew D. Hall Ph.D. and Quinlin M. Hanson Ph.D.
National Center for Advancing Translational Sciences (NCATS)
National Institute of Health (NIH), Rockville, MD
Target class profiling (TCP) is a chemical biology approach amenable to investigating understudied biological targets. TCP is achieved by developing a generalizable assay platform and applying it to screen a curated set of compound libraries against representative members of a target class. Small molecule methyltransferases (SMMTase) are a subclass of methyltransferase that act on metabolites to modulate signaling pathways, metabolize xenobiotics, or balance the available methyl pool. We screened four curated libraries totaling 27,574 unique compounds against the SMMTases nicotinamide N-methyltransferase (NNMT), phenylethanolamine N-methyltransferase (PNMT), histamine N-methyltransferase (HNMT), glycine N-methyltransferase (GNMT), catechol O-methyltransferase (COMT), and guanidinoacetate N-methyltransferase (GAMT). The data generated by this TCP can be leveraged for informed tool molecule development. For example, in the associated publication we identified a chemotype of HNMT-selective inhibitors. Additionally, we identified a putative SMMTase-selective inhibitor with potential as a tool molecule for studying broader methyltransferase biology.
High-through put screening assays were developed at the National Center for Advancing Translational Science (NCATS) for the enzymes NNMT, PNMT, HNMT, GNMT, COMT, and GAMT. Enzymatic activity was measured as a function of SAM cofactor conversion using the MTase Glo kit (Promega) for all enzymes. All assays were performed in 1536-well format with substrates and SAM concentrations at KM values. Enzyme concentration and assay timing were optimized for 10-20% SAM conversion. Initial screening of 27,574 compounds was done as single-point assays using the highest compound concentration (40 uM). […] These compounds were replated in 11-point dose response and assayed against NNMT, PNMT, HNMT, GNMT, COMT, GAMT, and a counter-assay. The IC50 and efficacy (maximal response) values were determined for each dose-response curve. These values are also accounted for in the area under the curve (AUC) values.
PROTOCOL TABLE (as described by Inglese J, Shamu CE and Guy RK. 2007)
SEQUENCE No. (e.g., 1, 2, 3, etc.); […] (e.g., Cells, Incubation, Reagent, etc.); VALUE; DESCRIPTION.
1; Reagent; 2 uL; SMMTase Enzyme (2x) in reaction buffer, columns 1- 48.
2; Reagent; 1 uL; SAM (4x) in reaction buffer, columns 1-48.
3; Controls; 23 nL; DMSO in column 4; sinefungin in DMSO (0 uM - 40 uM) in 7-point 1:2 dilution series (n = 2) in column 2.
4; Compounds; 23 nL; Columns 5-48.
5; Reagent; 1 uL; Substrate (4x) in reaction buffer, columns 2-48.
6; Time; 20-30 min; Incubation.
7; Reagent; 1 uL; MTase-Glo reagent (5X), columns 1-48.
8; Time; 30 min; Incubation.
9; Reagent; 5 uL; MTase-Glo Detection reagent, columns 1-48.
10; Time; 30 min; Incubation, luminescence evolution.
11; Detection; Luminescence; ViewLux uHTS Microplate Imager (PerkinElmer).
NOTES (numbers refer to Sequence numbers above)
1, 2, 5. White Medium Binding Greiner 1536-well plates (Cat #789175-F, Greiner Bio-One, Monroe, NC); Reaction buffer: 50 mM Tris, pH 8.0, 3 mM MgCl2, 1 mM EDTA, 50 mM NaCl, 1 mM DTT, and 0.1 mg/mL BSA. Evaporation was prevented by covering assay plates with metal lids containing holes to allow gas diffusion.
1. Six SMMTase were profiled: HNMT, GNMT, PNMT, COMT, NNMT, GAMT
5. The corresponding substrate was used for each enzyme: HNMT - 5.3 uM Histamine; GNMT - >500 uM Glycine; PNMT - 16.2 uM Norephinephrine; COMT - 13.7 uM Norephinephrine; NNMT - 3.8 uM Nicotinamide; GAMT - 2.5 uM Guanidinoacetate.6, 8, 10. Room temperature
6. Final reaction conditions: 10 nM COMT, 5 uM SAM, 15 uM norepinephrine, 50 mM Tris, pH 8.0, 3 mM MgCl2, 1 mM EDTA, 50 mM NaCl, 1 mM DTT, and 0.1 mg/mL BSA; refer to tables 2 and S1 for specific timing.
8. […]
% is scaled to controls: 0 for no effect and ±100 for the full control effect.

Structure (SMILES) | activity change, negative = inhibition
CN(C(=O)Cc1ccc(Cl)c(Cl)c1)[C@@H]1CC[C@]2(CCCO2)C[C@H]1N1CCCC1 | inactive: 5.69%
CN(C(=O)Cc1ccccc1)[C@@H]1CC[C@]2(CCCO2)C[C@H]1N1CCCC1 | inactive: 1.02%
CCn1c(=O)n([C@@H]2CCN(CC3CCCCCCC3)C[C@H]2CO)c2ccccc21 | inactive: -0.966%
O=C(O[C@H]1CN2CCC1CC2)C1NCc2ccccc2[C@@H]1c1ccccc1 (stereo partly specified) | inactive: -9.17%
N[C@@H](Cc1ccc([N+]([O-])(CCCl)CCCl)cc1)C(=O)O | active: -60.1%
CN(C)C1(c2ccccc2)CCC2(CC1)OCCc1c2[nH]c2ccc(F)cc12 (stereo unspecified) | inactive: 1.45%
